In US11850280B1 (priority 2020, dated 2023):

Conditions: in vivo

Ivermectin
release and uptake in the blood: successfully releases the Ivermectin post-rumen, allowing for uptake in the blood
